The target of experiment [1] is cynomolgus monkey CEACAM5 on CHO-k1-cynoCEACAM5 clone 8 cells (cynomolgus monkey). Put plainly: cell-based or functional assay.
Experiment [2] deals with human CEACAM5 (carcinoembryonic antigen, CEA) on cells (human) (UniProt P06731). Put plainly: cell-based or functional assay.
Experiment [3] deals with cynomolgus monkey CEACAM5 on CHO-k1-cynoCEACAM5 clone 8 cells (cynomolgus monkey). Nature of the experiment: cell-based or functional assay. Further details: AUC of activation curve, Jurkat-hu4-1BB-NFκB-luc2 with CHO-k1-cyno CEACAM5 clone 8: unit not given beside the values.
Experiment [4] concerns the target human CEACAM5 (carcinoembryonic antigen, CEA) on cells (human) (UniProt P06731). Nature of the experiment: cell-based or functional assay. Further details: AUC of activation curve, Jurkat-hu4-1BB-NFκB-luc2 with CHO-k1-cyno CEACAM5 clone 8: unit not given beside the values.
For experiment [5] the target is unchanged. Nature of the experiment: flow cytometry, CHO-k1-huCEACAM5 clone 11. (Flow cytometry measures light scatter and fluorescence of single cells or particles in a stream.)
Experiment [6] has the same target. Nature of the experiment: flow cytometry, CHO-k1-huCEACAM5 clone 12.
The target is the same in experiment [7]. Nature of the experiment: flow cytometry, CHO-k1-huCEACAM5 clone 13.
Experiment [8] has the same target. Nature of the experiment: flow cytometry, CHO-k1-huCEACAM5 clone 17.
The target is the same in experiment [9]. Put plainly: flow cytometry, CHO-k1-huCEACAM5 clone 11. Further details: unit not given beside the values.
Experiment [10] has the same target. Nature of the experiment: flow cytometry, CHO-k1-huCEACAM5 clone 12. Details: unit not given beside the values.
Experiment [11] shares this target. Nature of the experiment: flow cytometry, CHO-k1-huCEACAM5 clone 13. Details: unit not given beside the values.
The target is the same in experiment [12]. Put plainly: flow cytometry, CHO-k1-huCEACAM5 clone 17. Further details: unit not given beside the values.
Experiment [13] shares this target. Put plainly: flow cytometry, CHO-k1-huCEACAM5 clone 11. The source holds these as a separate data set.
Experiment [14] shares this target. Nature of the experiment: flow cytometry, CHO-k1-huCEACAM5 clone 12. The source holds these as a separate data set.
Experiment [15] has the same target. Put plainly: flow cytometry, CHO-k1-huCEACAM5 clone 11. Details: unit not given beside the values. This is another data set of the same source.
Experiment [16] has the same target. Put plainly: flow cytometry, CHO-k1-huCEACAM5 clone 12. Details: unit not given beside the values. The source holds these as a separate data set.
Experiment [17] deals with cynomolgus monkey CEACAM5 on CHO-k1-cynoCEACAM5 clone 8 cells (cynomolgus monkey). Nature of the experiment: flow cytometry, CHO-k1-cynoCEACAM5 clone 8.
The target is the same in experiment [18]. Nature of the experiment: flow cytometry, CHO-k1-cynoCEACAM5 clone 8. Details: unit not given beside the values.
Experiment [19] has the same target. Nature of the experiment: flow cytometry, CHO-k1-cynoCEACAM5 clone 8. The source holds these as a separate data set.
Experiment [20] has the same target. Nature of the experiment: flow cytometry, CHO-k1-cynoCEACAM5 clone 8. Details: unit not given beside the values. This is another data set of the same source.

Amino acid sequences for entries named in this document (tags omitted). Residues count along the entry.
UniProt P06731, 35-685 E398K limits assumed: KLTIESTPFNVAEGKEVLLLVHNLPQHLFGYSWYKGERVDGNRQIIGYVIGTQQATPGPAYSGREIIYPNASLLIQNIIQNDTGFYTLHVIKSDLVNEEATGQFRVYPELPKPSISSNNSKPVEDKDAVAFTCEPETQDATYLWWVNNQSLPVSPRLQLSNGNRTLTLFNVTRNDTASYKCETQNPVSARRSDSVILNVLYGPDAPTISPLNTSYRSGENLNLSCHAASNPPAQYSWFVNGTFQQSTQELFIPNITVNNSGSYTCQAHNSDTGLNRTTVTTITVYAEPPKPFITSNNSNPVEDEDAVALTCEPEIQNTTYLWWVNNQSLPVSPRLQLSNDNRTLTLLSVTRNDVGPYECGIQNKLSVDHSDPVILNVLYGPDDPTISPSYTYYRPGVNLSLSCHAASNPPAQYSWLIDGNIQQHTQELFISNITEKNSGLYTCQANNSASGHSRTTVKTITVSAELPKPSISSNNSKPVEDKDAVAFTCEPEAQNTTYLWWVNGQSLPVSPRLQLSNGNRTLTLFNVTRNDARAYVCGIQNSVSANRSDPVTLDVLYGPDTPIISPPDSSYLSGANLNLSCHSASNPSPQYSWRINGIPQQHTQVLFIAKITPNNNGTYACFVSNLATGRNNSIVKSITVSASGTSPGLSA

Read-outs that look alike come from different tables or passages of the source.

As usually defined, the EC50 is the concentration that produces a half-maximal response.

CEA (MEDI-565)-4-1BBL (Fc fusion) returned an EC50, NFκB-luciferase in Jurkat-hu4-1BB-NFκB-luc2 with CHO-k1-cyno CEACAM5 clone 8 in experiment [1] of 0.2 nM. This substance also showed an EC50, NFκB-luciferase in Jurkat-hu4-1BB-NFκB-luc2 with CHO-k1-human CEACAM5 clone 11 in [2] of 0.11 nM. Also, the EC50, NFκB-luciferase in Jurkat-hu4-1BB-NFκB-luc2 with CHO-k1-human CEACAM5 clone 12 in [2] was determined as 0.06 nM. Also, in experiment [3], the AUC of activation curve, Jurkat-hu4-1BB-NFκB-luc2 with CHO-k1-cyno CEACAM5 clone 8 came to 76300. Besides, the AUC of activation curve, Jurkat-hu4-1BB-NFκB-luc2 with CHO-k1-human CEACAM5 clone 11 in experiment [4] worked out at 155000. The AUC of activation curve, Jurkat-hu4-1BB-NFκB-luc2 with CHO-k1-human CEACAM5 clone 12 in experiment [4] came out at 155000. In addition, the EC50 stood at 1.75 nM in experiment [5]; 2.18 nM in experiment [6]; 6.39 nM in [7]; 1.84 nM in experiment [8]; 6.68 nM in experiment [13]; 10.9 nM in [14]. Further, the EC50 was determined as 8.82 nM in experiment [17] and 9.43 nM in experiment [19]. Besides, the AUC in experiment [9] came to 14300; in experiment [10] it was 49700; in experiment [11] it was 82100; in experiment [12] it was 15300; in experiment [15], 2850; in [16], 8310. In addition, the AUC in experiment [18] is 20600; in experiment [20], 3900.
